One molecule from paper PMC11997999, “Uncovering α-Selectivity for Liver X Receptor Agonists for Lipotoxic Cancer Therapies” (Journal of Medicinal Chemistry, 2025) can be followed below.

The chains behind the UniProt entries cited, without tags or fusion partners. Residues count along the entry.
UniProt Q13133, 209-447 limits assumed: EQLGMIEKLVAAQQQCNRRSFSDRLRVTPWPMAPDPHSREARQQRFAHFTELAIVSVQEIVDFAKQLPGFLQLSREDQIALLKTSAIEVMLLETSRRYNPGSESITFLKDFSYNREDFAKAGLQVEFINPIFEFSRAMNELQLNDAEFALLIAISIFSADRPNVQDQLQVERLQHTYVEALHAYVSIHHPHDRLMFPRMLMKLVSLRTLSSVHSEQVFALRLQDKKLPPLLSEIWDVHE

The experiment deals with T1, LXRα LBD (GST) (Homo sapiens, UniProt Q13133).
T1 construct: 5 nM LXRα LBD (GST); 10 nM LXRβ LBD (GST); purchased ThermoFisher Scientific PV4655
Put plainly: Time-resolved LXR FRET assay (LanthaScreen TR-FRET LXRα Coactivator Assay Kit). It is filed as biochemical. The method, then:
The biochemical TR-FRET assays were performed using the LanthaScreen TR-FRET LXRα Coactivator Assay Kit, goat (ThermoFisher Scientific, PV4655), and the LanthaScreen TR-FRET LXRβ assay kit, goat (ThermoFisher Scientific, PV4658), according to the manufacturer’s instructions using the following concentrations: 5 nM LXRα LBD (GST); 10 nM LXRβ LBD (GST); 500 nM fluorescein-TRAP220/DRIP-2; 200 nM fluorescein-D22; 10 nM Tb anti-GST antibody. The TR-FRET signals were measured after 6 h using a TECAN SPARK multimode microplate reader with the following settings: first excitation wavelength: 360 nm (bandwidth 35 nm), first emission wavelength: 485 nm (bandwidth 20 nm); second excitation wavelength: 360 nm (bandwidth 35 nm), second emission wavelength: 535 nm (bandwidth 25 nm); integration time: 200 μs; lag time: 100 μs; settle time: 0 ms.
In general terms: In TR-FRET formats the signal depends on donor and acceptor labels being close together.

For `CC(C)(C)N1C(=O)C(Nc2ccc(N3CCCCC3)cc2)=C(c2ccccc2)C1=O` [Compound 51, 1-(tert-Butyl)-3-phenyl-4-((4-(piperidin-1-yl)phenyl)amino)-1H-pyrrole-2,5-dione], the “selectivity for LXRα over LXRβ (TR-FRET EC50)” value was 4 fold.
